According to US11779630B2, “Peptides and methods of using the same” (SERPIN PHARMA, LLC, priority 2020, dated 2023):
In brackets after ≈: the same amount, converted by molar mass. Entries after “also recorded” stand apart in the source; their conditions may differ.

Assays:
[1] = test system: adult dorsal root ganglion (DRG) neurons; test: Trypan blue survivability assay of DRG neurons; settings: 100 ng/ml, 96 hours, vs 1% FBS control, NT-3 positive control
[2] = test system: TSLP; test: Planned co-culture of airway epithelial cells (ALI) with patient derived dendritic cells and PBMCs; settings: planned mechanistic assay
[3] = test system: Epstein Bar Virus
[4] = test system: NFκB; test: NFκB reporter assay (THP1-XBlue-MD2-CD14 cells) stimulated with LPS, SEAP readout; settings: LPS stimulation (FIG. 2)
[5] = test system: Vero cells; test: Vero cell viability, cell-titer-glo assay; type: cell-based; settings: increasing concentrations
[6] = Preliminary pharmacokinetic study, single subcutaneous injection; type: in vivo; settings: human, plasma, sc, patients, single 0.2 mg/kg subcutaneous injection, read-out: plasma concentration, average
[7] = test system: mice, infarct size; test: Infarct size reduction in mice; settings: 0.15 mg/kg subcutaneous vs 5 mg/kg (100 μg) intraperitoneal
[8] = test system: IMG microglial cells; test: Western blot of LRP1 and LC3 II/I in LPS activated IMG microglial cells; settings: 100 μg/ml before LPS 100 ng/ml for 24 hours
[9] = test system: mice, CAIA; test: Acute mouse model of rheumatoid arthritis (CAIA); settings: single administration, 0.6 mg/kg, Day 3 after paw swelling had started
[10] = PK in rats, intravenous injection; settings: rat, in vivo
[11] = test system: Measles
[12] = test system: Enterovirus-71
[13] = test system: mice, OVA-induced allergic inflammation; test: Ovalbumin mouse model of allergic asthma; settings: single dose
[14] = test system: PBMCs collected from the arthritic mice; test: Ex-vivo LPS exposure of PBMCs from treated arthritic mice; settings: mice treated daily, subcutaneous 0.6 mg/kg
[15] = test system: TMPRSS2; test: TMPRSS2 inhibition
[16] = test system: adult dorsal root ganglion (DRG) neurons; test: Sprouting / neurite outgrowth of cultured primary adult DRG neurons; settings: 100 or 500 ng/mL, 48 hours (and 96 hours), phase contrast images (FIG. 6A-6B)
[17] = test system: Vero cells, primary astrocytes, primary pericytes
[18] = test system: mouse macrophages (J774A.1); test: Inflammasome mediated IL-1β release after GP96 and ATP; settings: GP96 (priming) and ATP stimulation
[19] = test system: Klebsiella pneumonia (KP)
[20] = test system: acute lethal septicemia; test: Model of acute lethal septicemia (LPS); type: in vivo; settings: 3 doses (4 μg each) at −2, 0, and 0.5 hours of LPS; cumulative 0.6 mg/kg
[21] = Phase I and Phase IIa clinical trials, safety; type: in vivo, human; settings: Phase I and ongoing Phase IIa clinical trials
[22] = test system: Dengue virus 2
[23] = test system: Akata, Huh7, Vero 76, MDCK; test: Cell toxicity in the cell lines of the viral screen; type: cell-based; settings: each cell line, top concentration tested
[24] = test system: mice, partial nerve ligation model; test: Partial nerve ligation (PNL) neuropathic pain model; type: in vivo; settings: 50 μg 1 hour prior to surgery; days 1, 3, 6, 8
[25] = test system: mice, formalin pain model; test: Formalin pain test; type: in vivo; settings: 50 μg subcutaneously before intraplantar formalin

CCCC[C@H](NC(=O)[C@H](CC(C)C)NC(=O)[C@H](Cc1ccccc1)NC(=O)[C@@H](NC(=O)[C@H](Cc1ccccc1)NC(=O)[C@@H]1CCCN1C(=O)[C@H](CCCCN)NC(=O)[C@H](CC(N)=O)NC(=O)[C@H](Cc1ccccc1)NC(=O)[C@H](CCCCN)NC(=O)[C@@H](NC(C)=O)C(C)C)C(C)C)C(=O)N[C@H](C(=O)N[C@@H](CCC(=O)O)C(=O)N[C@@H](CCC(N)=O)C(=O)N[C@@H](CC(N)=O)C(=O)N[C@H](C(=O)N[C@@H](CCCCN)C(N)=O)[C@@H](C)O)[C@@H](C)CC [VKFNKPFVFL[Nle]IEQNTK]
survivability of neurons [1]: robustly promoted neuronal survival; also recorded: increased survivability of the neurons compared to vehicle control and even greater than neurotrophic factor-3 (NT-3) | TSLP mediated effects [2]: will reduce TSLP mediated effects | EC50 [3]: 38.7 µg/mL (≈ 18.4 µM) | NFkB reduction compared with unmodified SP16 [4]: significantly improved NFkB reduction | viability of Vero cells [5]: increased the viability | level at 1.5 h ([6]; 90 minutes following injection): 2.4 ng/mL | level at 6 h ([6]; six hours after injection): 0.9 ng/mL | infarct size reduction [7]: same effective infarct size reduction | autophagy induction (LC3II/I ratio) [8]: capable of restoring to near basal levels | paw swelling [9]: capable of reducing paw swelling | AUC(0-t) [10]: 900 ng·h/mL | half-life [10]: 1.9 h | Cmax ([10]; read-out: Cmax (C0 μg/mL)): 2500 ng/mL | EC50 [11]: 47 µg/mL (≈ 22.3 µM) | EC50 [12]: 47 µg/mL (≈ 22.3 µM) | serum CCL11 [13]: reduced serum CCL11 | cytokines IL-6 and TNF-α after ex-vivo LPS [14]: significantly lower vs. vehicle | IC50 against TMPRSS2 [15]: 1125 ng/m L | sprouting / neurite outgrowth [16]: robustly promoted sprouting; also recorded: greater neurite outgrowth in these cells compared to both control cells and Nerve Growth Factor (NGF) | toxicity to cells [17]: non-toxic to these cells at up to 100 μg/ml | inflammasome mediated IL-1β release [18]: reduced inflammasome mediated IL-1β release | benefit in survival vs. vehicle control ([19]; 12 mg/kg daily (13 doses total) after intranasal 600 CFU KP (LD100), 14 days, p<0.02): 40% | weight loss ([19]; 12 mg/kg daily after KP exposure): decrease in weight loss was also observed | mortality over a 72-hour period [20]: significantly decreased mortality over a 72-hour period | safety and tolerability [21]: safe and well tolerated | EC50 [22]: 47 µg/mL (≈ 22.3 µM) | Cell Toxicity [23]: *Cell Toxicity tested and found to be >150 μg/ml in each cell line (top cone, tested). | pain threshold, mechanical (Von Frey) [24]: increased the pain threshold of mechanical allodynia | tolerance to heat, thermal (Hargreaves) [24]: increases the tolerance to heat | first phase of the formalin test (licking) [25]: significantly reduced the first phase; also recorded: reduction of the first phase | start of the second phase of the formalin test [25]: significantly delayed the start of the second phase; also recorded: delay in the second phase
